Only a part is listed here, and it is no random draw. Calls of active or inactive are those of the source.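 How the source made its calls: active means activation above the run cutoff, the mean activation of all test compounds plus 3 SD (cut at about 18% in these data); inactive means the rest.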
Molecular target: Muscarinic acetylcholine receptor M5 (Homo sapiens) (UniProt P08912)
Assay: human M5 muscarinic receptor positive allosteric modulators, primary screen, CHO-K1 cells, Fluo-8 calcium fluorescence (AID 624038)
Details: CHO-K1 hM5, Fluo-8 calcium, ACh EC20 PAM; at 3 µM; stronger effect = higher value; 0% = ACh EC20, 100% = ACh EC100

Amino acid sequences for entries named in this document (tags omitted).
UniProt P08912, whole entry: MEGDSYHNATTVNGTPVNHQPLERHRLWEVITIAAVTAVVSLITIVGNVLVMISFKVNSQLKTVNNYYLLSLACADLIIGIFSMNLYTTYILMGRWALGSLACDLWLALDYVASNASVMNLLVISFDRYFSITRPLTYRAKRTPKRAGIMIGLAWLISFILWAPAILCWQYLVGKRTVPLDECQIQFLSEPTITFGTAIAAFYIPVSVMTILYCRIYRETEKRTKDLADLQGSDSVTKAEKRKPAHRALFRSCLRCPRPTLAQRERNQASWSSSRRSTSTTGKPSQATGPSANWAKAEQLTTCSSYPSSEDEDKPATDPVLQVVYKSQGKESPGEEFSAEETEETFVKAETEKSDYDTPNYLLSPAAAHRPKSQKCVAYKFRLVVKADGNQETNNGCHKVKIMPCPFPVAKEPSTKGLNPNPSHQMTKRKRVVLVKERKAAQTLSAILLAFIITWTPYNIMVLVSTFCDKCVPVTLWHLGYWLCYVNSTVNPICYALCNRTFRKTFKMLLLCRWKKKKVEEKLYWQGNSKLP

| SMILES | activation |
| --- | --- |
| CN(C)CCOC(=O)C(O)(c1ccccc1)C1CCCC1 (stereo unspecified) | inactive: -23.2% |
| COc1ccccc1OP(C)(=O)Nc1ccc(Br)cc1 (stereo unspecified) | inactive: -1.99% |
| CCCCCCCCCCCCCCCC1C[N+](C)(C)CCOP(C)(=O)O1 (stereo unspecified) | inactive: -42% |
| CP(=O)(Nc1ccc(Cl)cc1Cl)Oc1ccccc1 (stereo unspecified) | inactive: 10.2% |
| CP(=O)(OCCOc1ccccc1)OCCOc1ccccc1 | inactive: 5.37% |
| COc1ccccc1OP(C)(=O)Nc1ccc(C)c(C)c1 (stereo unspecified) | inactive: -0.91% |
| COc1ccc(OP(C)(=O)Nc2ccccc2Br)cc1 (stereo unspecified) | inactive: -1.22% |
| Cc1cc(C)cc(OP(C)(=O)Nc2cccc(C(F)(F)F)c2)c1 (stereo unspecified) | inactive: 2.38% |
| O=C1C(O)=C([N+](=O)[O-])C(=O)C(O)=C1[N+](=O)[O-] | inactive: 4.8% |
| CCOC(=O)c1ccc(NP(C)(=O)Oc2ccc(Cl)cc2)cc1 (stereo unspecified) | inactive: 0.64% |
| CP(=O)(OC12CC3CC(CC(C3)C1)C2)OC12CC3CC(CC(C3)C1)C2 | inactive: -4.54% |
| CN(C)C(=O)c1c([N+](=O)[O-])cc([N+](=O)[O-])cc1[N+](=O)[O-] | inactive: -3.79% |
| COc1ccccc1OP(C)(=O)Nc1ccccc1Br (stereo unspecified) | inactive: 1.18% |
| CC(C)(C)c1ccc(OP(C)(=O)O)cc1 | inactive: 0.6% |
| CP(=O)(Nc1ccc(Cl)cc1)Oc1ccc(F)cc1 (stereo unspecified) | inactive: -5.37% |
| O=C(OCCCN1CCCC1)C(O)(c1ccccc1)C1CCCCC1 (stereo unspecified) | inactive: -36.2% |
| COc1ccccc1OP(C)(=O)Nc1c(C)n(C)n(-c2ccccc2)c1=O (stereo unspecified) | inactive: 1.7% |
| CCc1ccc(OP(C)(=O)Nc2cccnc2)cc1 (stereo unspecified) | inactive: 12.7% |
| CP(=O)(Oc1ccccc1)N1CCOC1=O (stereo unspecified) | inactive: -0.14% |
| COc1ccc(OP(C)(=O)Nc2ccc(Br)cc2)cc1 (stereo unspecified) | inactive: -4.16% |
| CCN(CC)CC(O)COC(=O)C(O)(c1ccccc1)C1CCCCC1 (stereo unspecified) | inactive: -49.4% |
